Amino acid sequences for entries named in this document (tags omitted).
UniProt P35372, whole entry: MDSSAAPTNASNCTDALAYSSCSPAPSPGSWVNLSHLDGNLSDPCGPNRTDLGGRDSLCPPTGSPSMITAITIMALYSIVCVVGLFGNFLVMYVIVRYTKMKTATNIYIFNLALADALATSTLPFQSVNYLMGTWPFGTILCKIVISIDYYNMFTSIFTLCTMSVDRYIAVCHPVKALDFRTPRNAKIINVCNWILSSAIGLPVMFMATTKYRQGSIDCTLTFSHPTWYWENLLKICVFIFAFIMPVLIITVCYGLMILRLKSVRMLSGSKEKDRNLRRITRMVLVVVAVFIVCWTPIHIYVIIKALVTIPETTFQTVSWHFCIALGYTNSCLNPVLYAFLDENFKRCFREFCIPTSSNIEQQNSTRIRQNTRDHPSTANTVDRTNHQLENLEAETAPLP

According to publication PMC6005765 (Bioorganic & medicinal chemistry letters, 2018):

Molecular target: μ opioid receptor (UniProt P35372)
Test: radioligand binding

## Deltorphin II (peptide)
  IC50: 627 nM
